Measured values taken from publication PMC3791872, “Ciprofloxacin is an inhibitor of the Mcm2-7 replicative helicase” (Bioscience Reports, 2013).

Chains of the proteins cited; added tags and fusions are not shown. Lines headed by an entry give the natural chain unless they say otherwise; changes in a name come on top.
UniProt P24279: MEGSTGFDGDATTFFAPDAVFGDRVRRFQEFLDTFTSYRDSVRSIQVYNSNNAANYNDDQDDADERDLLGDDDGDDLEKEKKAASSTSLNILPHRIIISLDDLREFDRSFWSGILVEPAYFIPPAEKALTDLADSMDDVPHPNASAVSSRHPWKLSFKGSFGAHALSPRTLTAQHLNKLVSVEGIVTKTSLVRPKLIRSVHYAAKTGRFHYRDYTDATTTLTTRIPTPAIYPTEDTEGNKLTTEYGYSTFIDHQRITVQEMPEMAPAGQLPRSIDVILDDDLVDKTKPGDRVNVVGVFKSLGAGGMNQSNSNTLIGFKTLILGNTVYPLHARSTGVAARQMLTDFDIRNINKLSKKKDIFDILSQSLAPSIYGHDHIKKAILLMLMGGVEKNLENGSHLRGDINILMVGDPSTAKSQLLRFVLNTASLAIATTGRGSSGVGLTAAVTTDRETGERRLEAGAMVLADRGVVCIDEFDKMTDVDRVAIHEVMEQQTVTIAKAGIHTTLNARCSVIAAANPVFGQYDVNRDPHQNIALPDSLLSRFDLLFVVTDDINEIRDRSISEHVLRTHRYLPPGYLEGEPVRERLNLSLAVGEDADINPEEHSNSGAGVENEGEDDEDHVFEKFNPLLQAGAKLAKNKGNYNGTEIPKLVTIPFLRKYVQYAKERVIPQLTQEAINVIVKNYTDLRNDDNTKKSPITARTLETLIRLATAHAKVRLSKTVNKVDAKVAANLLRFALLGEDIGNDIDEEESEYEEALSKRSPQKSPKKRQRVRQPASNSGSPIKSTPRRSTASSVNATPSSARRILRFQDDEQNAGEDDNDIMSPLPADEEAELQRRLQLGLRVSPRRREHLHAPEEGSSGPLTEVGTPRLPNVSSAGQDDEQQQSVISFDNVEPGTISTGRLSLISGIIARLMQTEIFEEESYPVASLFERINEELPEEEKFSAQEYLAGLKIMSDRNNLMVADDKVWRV
UniProt P29469: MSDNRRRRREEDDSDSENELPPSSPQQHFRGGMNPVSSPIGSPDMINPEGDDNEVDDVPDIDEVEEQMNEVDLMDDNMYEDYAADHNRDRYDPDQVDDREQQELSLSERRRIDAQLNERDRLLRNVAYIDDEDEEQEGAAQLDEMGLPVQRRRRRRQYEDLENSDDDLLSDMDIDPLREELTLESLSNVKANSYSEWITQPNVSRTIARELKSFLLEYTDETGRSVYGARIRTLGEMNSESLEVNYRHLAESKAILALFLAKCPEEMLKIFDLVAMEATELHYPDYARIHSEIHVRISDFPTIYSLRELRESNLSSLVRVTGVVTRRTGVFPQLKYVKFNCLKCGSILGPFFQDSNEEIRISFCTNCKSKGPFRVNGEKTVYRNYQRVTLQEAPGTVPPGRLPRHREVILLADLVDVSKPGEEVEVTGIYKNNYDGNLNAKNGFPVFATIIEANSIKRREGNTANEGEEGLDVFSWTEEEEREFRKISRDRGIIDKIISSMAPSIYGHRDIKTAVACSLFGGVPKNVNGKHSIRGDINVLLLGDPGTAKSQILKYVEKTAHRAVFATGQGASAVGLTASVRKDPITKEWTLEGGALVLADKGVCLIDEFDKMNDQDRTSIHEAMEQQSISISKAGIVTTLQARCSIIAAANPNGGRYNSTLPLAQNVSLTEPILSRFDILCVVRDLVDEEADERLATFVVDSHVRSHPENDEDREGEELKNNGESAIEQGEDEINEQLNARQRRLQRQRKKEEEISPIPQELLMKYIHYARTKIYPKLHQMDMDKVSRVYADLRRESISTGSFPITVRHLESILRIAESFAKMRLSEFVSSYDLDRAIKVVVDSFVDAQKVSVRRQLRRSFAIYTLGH
UniProt P29496: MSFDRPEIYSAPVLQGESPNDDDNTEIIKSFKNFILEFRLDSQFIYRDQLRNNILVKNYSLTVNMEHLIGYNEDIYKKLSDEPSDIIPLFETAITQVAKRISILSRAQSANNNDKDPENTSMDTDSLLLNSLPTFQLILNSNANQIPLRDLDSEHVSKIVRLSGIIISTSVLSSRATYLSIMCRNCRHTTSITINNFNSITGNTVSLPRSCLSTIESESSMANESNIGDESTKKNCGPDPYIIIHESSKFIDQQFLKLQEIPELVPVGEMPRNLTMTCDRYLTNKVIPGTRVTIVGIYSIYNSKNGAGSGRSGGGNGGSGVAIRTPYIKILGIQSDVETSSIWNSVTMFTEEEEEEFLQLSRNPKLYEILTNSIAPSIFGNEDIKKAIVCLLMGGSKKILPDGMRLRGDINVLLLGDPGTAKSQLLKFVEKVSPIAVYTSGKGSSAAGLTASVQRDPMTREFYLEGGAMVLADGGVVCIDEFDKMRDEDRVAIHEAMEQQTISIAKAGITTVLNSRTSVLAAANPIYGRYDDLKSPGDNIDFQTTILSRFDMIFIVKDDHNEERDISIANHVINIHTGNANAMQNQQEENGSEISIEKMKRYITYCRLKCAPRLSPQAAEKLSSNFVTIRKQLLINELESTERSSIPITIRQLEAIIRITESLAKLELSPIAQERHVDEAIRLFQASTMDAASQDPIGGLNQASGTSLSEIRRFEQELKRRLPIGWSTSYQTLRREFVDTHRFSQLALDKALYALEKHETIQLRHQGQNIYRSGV
UniProt P30665: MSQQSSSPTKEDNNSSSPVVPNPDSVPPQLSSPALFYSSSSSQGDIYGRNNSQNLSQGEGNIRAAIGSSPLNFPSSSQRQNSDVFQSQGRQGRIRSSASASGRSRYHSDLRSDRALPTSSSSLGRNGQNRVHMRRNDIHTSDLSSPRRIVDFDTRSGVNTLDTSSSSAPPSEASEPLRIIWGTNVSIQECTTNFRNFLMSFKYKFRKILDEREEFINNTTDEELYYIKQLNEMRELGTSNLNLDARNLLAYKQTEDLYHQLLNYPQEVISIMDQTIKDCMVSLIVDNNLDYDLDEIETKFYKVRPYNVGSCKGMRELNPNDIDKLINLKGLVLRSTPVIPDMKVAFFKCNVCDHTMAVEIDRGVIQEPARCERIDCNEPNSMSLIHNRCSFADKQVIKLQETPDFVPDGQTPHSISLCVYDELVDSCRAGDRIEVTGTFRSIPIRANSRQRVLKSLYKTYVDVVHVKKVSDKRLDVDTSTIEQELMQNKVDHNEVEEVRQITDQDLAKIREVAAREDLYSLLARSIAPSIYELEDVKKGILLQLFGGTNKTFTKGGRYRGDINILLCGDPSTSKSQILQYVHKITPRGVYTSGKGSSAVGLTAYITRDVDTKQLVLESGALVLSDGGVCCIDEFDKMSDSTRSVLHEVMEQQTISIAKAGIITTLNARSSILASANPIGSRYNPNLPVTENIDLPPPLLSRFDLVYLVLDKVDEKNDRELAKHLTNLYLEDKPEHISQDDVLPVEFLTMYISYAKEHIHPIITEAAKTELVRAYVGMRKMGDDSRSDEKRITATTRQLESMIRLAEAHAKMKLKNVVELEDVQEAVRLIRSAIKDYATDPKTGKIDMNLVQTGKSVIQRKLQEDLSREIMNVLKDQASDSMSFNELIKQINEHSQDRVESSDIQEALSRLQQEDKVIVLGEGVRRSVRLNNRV
UniProt P38132: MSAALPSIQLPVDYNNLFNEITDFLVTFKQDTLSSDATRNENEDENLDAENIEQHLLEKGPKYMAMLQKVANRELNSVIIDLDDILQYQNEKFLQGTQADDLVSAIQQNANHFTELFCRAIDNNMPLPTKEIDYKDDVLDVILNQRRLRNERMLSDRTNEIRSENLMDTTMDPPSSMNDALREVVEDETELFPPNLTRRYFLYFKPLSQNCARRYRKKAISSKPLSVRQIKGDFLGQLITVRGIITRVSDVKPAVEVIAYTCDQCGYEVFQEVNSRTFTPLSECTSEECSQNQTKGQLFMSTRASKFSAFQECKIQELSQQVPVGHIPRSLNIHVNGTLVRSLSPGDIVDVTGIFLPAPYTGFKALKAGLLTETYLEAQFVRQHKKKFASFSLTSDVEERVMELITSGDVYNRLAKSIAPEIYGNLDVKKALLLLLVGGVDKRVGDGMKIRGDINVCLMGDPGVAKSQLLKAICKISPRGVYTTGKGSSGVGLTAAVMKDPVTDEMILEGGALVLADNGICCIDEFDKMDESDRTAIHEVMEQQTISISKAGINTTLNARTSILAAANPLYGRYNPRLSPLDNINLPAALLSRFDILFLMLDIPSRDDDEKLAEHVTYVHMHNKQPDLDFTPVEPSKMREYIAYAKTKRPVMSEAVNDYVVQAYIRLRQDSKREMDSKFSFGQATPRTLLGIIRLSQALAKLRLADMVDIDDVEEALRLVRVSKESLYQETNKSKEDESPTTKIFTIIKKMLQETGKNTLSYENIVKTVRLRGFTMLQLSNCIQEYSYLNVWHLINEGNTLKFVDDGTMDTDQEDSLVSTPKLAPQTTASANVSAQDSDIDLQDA
UniProt P53091: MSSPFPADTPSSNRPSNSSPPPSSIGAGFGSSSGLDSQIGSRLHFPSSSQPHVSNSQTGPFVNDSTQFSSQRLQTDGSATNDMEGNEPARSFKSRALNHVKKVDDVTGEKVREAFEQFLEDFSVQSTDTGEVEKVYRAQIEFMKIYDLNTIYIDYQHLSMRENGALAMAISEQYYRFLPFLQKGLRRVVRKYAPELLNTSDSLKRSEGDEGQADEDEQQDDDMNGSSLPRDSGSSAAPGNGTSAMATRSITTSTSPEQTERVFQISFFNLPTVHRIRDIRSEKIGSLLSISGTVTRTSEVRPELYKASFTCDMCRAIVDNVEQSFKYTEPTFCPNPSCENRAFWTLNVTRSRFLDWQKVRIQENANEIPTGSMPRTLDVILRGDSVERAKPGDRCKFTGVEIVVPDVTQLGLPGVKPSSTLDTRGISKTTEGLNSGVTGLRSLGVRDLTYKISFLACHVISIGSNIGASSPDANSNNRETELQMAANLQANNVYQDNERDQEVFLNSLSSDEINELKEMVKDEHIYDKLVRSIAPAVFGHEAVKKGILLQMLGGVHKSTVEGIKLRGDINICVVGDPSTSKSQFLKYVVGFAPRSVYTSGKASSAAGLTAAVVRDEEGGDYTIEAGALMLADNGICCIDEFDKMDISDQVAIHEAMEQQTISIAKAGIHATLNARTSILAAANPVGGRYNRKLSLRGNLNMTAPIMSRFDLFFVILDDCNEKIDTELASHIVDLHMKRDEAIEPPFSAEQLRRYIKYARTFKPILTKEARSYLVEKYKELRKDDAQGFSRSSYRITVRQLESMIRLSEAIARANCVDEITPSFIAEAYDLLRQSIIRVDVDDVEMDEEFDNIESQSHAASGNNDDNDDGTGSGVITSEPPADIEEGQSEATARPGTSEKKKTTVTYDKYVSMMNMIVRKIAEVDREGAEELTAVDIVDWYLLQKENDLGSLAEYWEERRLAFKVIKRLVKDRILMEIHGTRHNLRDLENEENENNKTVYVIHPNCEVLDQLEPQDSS

Experiments:
Mcm2-7 = Mcm2-7 (UniProt P24279+P29469+P29496+P30665+P38132+P53091); test: ssDNA double filter-binding assay, Mcm2-7; design: species or system Saccharomyces cerevisiae; settings: 1 mM compound, 150 nM helicase
Mcm467 = Mcm467 (Saccharomyces cerevisiae, UniProt P30665+P38132+P53091); test: ssDNA double filter-binding assay, Mcm467; settings: 1 mM compound, 150 nM helicase

Q: Which results are given for O=[N+]([O-])c1ccc(Cl)c2nonc12?
A: effect on ssDNA binding of Mcm2-7 (Mcm2-7): inhibit; effect on ssDNA binding of Mcm467 (Mcm467): inhibit
